Here are results for one substance from article PMC5956019, “A rapid solution-based method for determining the affinity of heroin hapten-induced antibodies to heroin, its metabolites, and other opioids” (Analytical and Bioanalytical Chemistry, 2018).

The test system of series [1] is 6-AmHap-Abs. The experiment in a line: Heterologous competition ELISA. Format: binding, mouse. The conditions noted are these: read-out: Competition ELISA Heterologous, IC50. On the technique in general: An ELISA detects its analyte on a solid surface through an enzyme-linked reagent.
Series [2] deals with 6-AmHap-Abs. The conditions noted are these: read-out: Competition ELISA Homologous, IC50; ref Sulima et al [3]; cited from earlier work.
For series [3] the following is noted: cited from earlier work.
For series [4], the system named is serum esterases. In words: Heroin degradation in buffer and in pre-immune and post-immune sera (UPLC/MS/MS).

Like-named read-outs stand apart in the source and are kept apart here.

By IC50 is commonly meant the point on the concentration scale where inhibition reaches its midpoint. 3,6-diacetylmorphine: the figures for the IC50 in series [1] and in series [2] were 0.0111 µM and 1.27 µM, respectively. The t1/2 in series [3] (degradation of heroin in humans, Fig. 1a) is 3 to 4 min; in series [4] (dilute post-immune serum with esterase inhibitors, 4000 nM heroin), “undefined”; in series [4] (dilute pre-immune serum with esterase inhibitors, 4000 nM heroin), “undefined”; in series [4] (post-immune serum, 5 nM heroin), “undefined”; in series [4] (post-immune serum, 10 nM heroin), “undefined”; in series [4] (post-immune serum, 20 nM heroin) it was “undefined”. The t1/2 is 31.6 to 56.8 min in series [4] (post-immune serum, 4000 nM heroin, 99% confidence interval); 25 to 32.5 min in series [4] (pre-immune serum, 5 nM heroin, 99% confidence interval); 33.3 to 49.9 min in series [4] (pre-immune serum, 10 nM heroin, 99% confidence interval); 26.9 to 33.4 min in series [4] (pre-immune serum, 20 nM heroin, 99% confidence interval); 18.3 to 32.7 min in series [4] (pre-immune serum, 4000 nM heroin, 99% confidence interval). Besides, the “half-life (t1/2) in serum” value in series [3] (in serum) is 3 to 4 min. For the same substance, the “heroin degradation in buffer alone” value in series [4] (DPBS, absence of serum, 3 h, RT, 5, 10, 20, or 4000 nM heroin) is recorded as “no heroin degradation was observed”. Also, the “% Heroin” value was 100% in series [4] (dilute post-immune serum with esterase inhibitors BNPP and iso-OMPA, 4000 nM heroin, 1 h); 27.7 ± 8.0% in series [4] (dilute pre-immune serum (1:200), after 1 h, regardless of starting heroin concentration); 4.3 ± 2.5% in series [4] (dilute pre-immune serum (1:200), after 3 h, regardless of starting heroin concentration); 91.76 ± 8.64% in series [4] (dilute pre-immune serum with esterase inhibitors BNPP and iso-OMPA, 4000 nM heroin, 1 h); 84.1 ± 3.4% in series [4] (post-immune serum, 20 nM heroin, after 1 h); 56.1 ± 3.3% in series [4] (post-immune serum, 20 nM heroin, after 3 h). For the same substance, the “heroin degradation in post-immune serum” value in series [4] (post-immune serum (~10 nM 6-AmHap binding sites), starting heroin less than or equal to 10 nM, 3 h) is listed as “No significant degradation”; in series [4] (post-immune serum, 4000 nM heroin, after 1 h), “extensive degradation”.
